Measured values reported in PMC4176424, “Thiolation-enhanced substrate recognition by D-alanyl carrier protein ligase DltA from Bacillus cereus” (F1000Research, 2014).

System: Nc1ncnc2c1ncn2[C@@H]1O[C@H](COP(=O)(O)OP(=O)(O)OP(=O)(O)O)[C@@H](O)[C@H]1O
Test: purified protein
Settings: 5 mM D-alanine, no CoA, 10 mM MgCl2, 0.1 M KCl, pH 7.2

For “BcDltA (D-alanyl carrier protein ligase DltA) (Bacillus cereus ATCC 14579)”, the Km was 0.46 ± 0.05 × 10^-3 M, the kcat was 0.0243 s⁻¹ and the kcat/Km was 53.3 M⁻¹ s⁻¹.
